Here are results for 19 compounds from patent US20260384421A1, “NOVEL COMPOUNDS THAT CAN BE USED AS THERAPEUTIC AGENTS” (published 2026).

A value given as a limit tells only on which side of the number the result lay.

Assay [1] deals with HL-60 cells. As to the kind of experiment: alamarBlue proliferation assay with HL-60 cells. To be noted: read-out: Activity on HL-60: IC50, RPMI 1640 medium, 10% FBS. The source says: (§1) These hyperproliferative processes can be benign or malignant and include hyperplasia, neoplasia, cancer and pre-cancerous lesions, and metastases. The antiproliferative activities of compounds falling under general formula (I) were investigated on human primary epidermal keratinocytes (HPEK) and human, murine and canine cell lines derived from hyperproliferative tissue or different cancer types, including MDA-MB-231, ZR-75-30, HCC-1395, HCC-1937, and T-47D all originating from cancer of the breast, JURKAT, RPMI-8402, LOUCY, TANQUE, REC-1, HL-60, NB-4 all originating from different types of blood cancer including lymphoma and leukemia of T-cells, B-cells and myeloid cells, TT originating from cancer of the neuroendocrine system, HeLa originating from cancer of the cervix, 23132/87, SW-948, and HCT-116 all originating from cancer of the gastrointestinal tract including stomach and colon, BHY originating from cancer of the mucosal epithelium, A-431 originating from cancer of the skin, HEP-G2 originating from cancer of the liver, NCI-H460 and A-549 both originating from cancer of the lung, PANC-1 originating from cancer of the pancreas, U-87 MG originating from cancer of the brain, A-375 and RVH-421 both originating from cancer of melanocytes, SW-1353 originating from cancer of bone-derived chondrocytes, C2C12 a mouse cell line originating from hyperproliferative muscle progenitor cells, LL/2 a mouse cell line originating from cancer of the lung, CF21.T a dog cell line originating from cancer of the connective tissue. To this end, according cells were seeded into 96-well plates (CORNING #3598) suitable for fluorescence assays at following initial cell numbers: 1000 cells per well for HPEK; 3000 cells per well for MDA-MB-231, 8000 cells per well for ZR-75-30, 1500 cells per well for HCC-1395, 1500 cells per well for HCC-1937, 3000 cells per well for T-47D, 1500 cells per well for JURKAT, 5000 cells per well for RPMI-8402, 9000 cells per well for LOUCY, 1500 cells per well for TANQUE, 9000 cells per well for REC-1, 1000 cells per well for HL-60, 1000 cells per well for NB-4, 9000 cells per well for TT, 2000 cells per well for HeLa, 2000 cells per well for 23132/87, 9000 cells per well for SW-948, 700 cells per well for HCT-116, 1500 cells per well for BHY, 700 cells per well for A-431, 1500 cells per well for HEP-G2, 500 cells per well for NCI-H460, 1000 cells per well for A-549, 1500 cells per well for PANC-1, 2500 cells per well for U-87 MG, 700 cells per well for A-375, 1500 cells per well for RVH-421, 2000 cells per well for SW-1353, 500 cells per well for C2C12, 500 cells per well for LL/2, and 3000 cells per well for CF21.T. In a volume of 90 μL per well of culture medium the cells were treated with compounds at indicated final concentrations by adding 10 μL per well of 10× compound working solutions from 1:100 pre-diluted 1000× compound DMSO stock-solutions in H2O (Water For Injection, WFI, Fisher Scientific, Gibco™ #A12873) or with the empty carrier DMSO (AppliChem, #A3672) at 0.1% v/v as control yielding a final volume of 100 μL per well. At day 5 after starting the treatments the cells were subjected to the alamarBlue® Proliferation Assay (Bio-Rad Serotec GmbH, BUF012B) according to the protocol of the manufacturer. The readout was taken with a multi-well plate-reader (Tecan Spark®) in the fluorescence mode with applying a filter for excitation at 560 nm (band width 10 nm) and for emission at 590 nm (band width 10 nm). Treatment for maximum proliferation inhibition with the commercial cytotoxic compound (S)-(+)-camptothecin (Fluorochem #M01564) at a concentration of 10 μM was included on each plate for assay quality control. Some of the test compounds of the present invention may have been obtained and applied as their salt forms.
(§2) The assays were performed in duplicate or more replicates of independent single experiments each containing a three- to six-fold replicate for every condition. […]
(In general: Resazurin is reduced to fluorescent resorufin, in cell work by metabolically active cells.)

In assay [2] the test system is RVH-421 cells. As to the kind of experiment: alamarBlue proliferation assay with RVH-421 cells (glucose-free L-15 medium). To be noted: read-out: Activity on RVH-421: IC50, Leibovitz's L-15 medium, 10% FBS, 0% CO2.
From the text: as §1, §2

Assay [3] concerns SW-948 cells. Nature of the assay: alamarBlue proliferation assay with SW-948 cells (glucose-free L-15 medium). To be noted: read-out: Activity on SW-948: IC50, Leibovitz's L-15 medium, 10% FBS, 0% CO2.
From the text: as §1, §2

For assay [4], the system named is NCI-H460 cells. Nature of the assay: alamarBlue proliferation assay with NCI-H460 cells. To be noted: read-out: Activity on NCI-H460: IC50, RPMI 1640 medium, 10% FBS.
For assay [5], the system named is JURKAT cells. Nature of the assay: alamarBlue proliferation assay with JURKAT cells. To be noted: read-out: Activity on JURKAT (IC50), day 5.
From the text: as §1, §2

In assay [6] the test system is MDA-MB-231 cells. As to the kind of experiment: alamarBlue proliferation assay with MDA-MB-231 cells (glucose-free Leibovitz's L-15 medium). To be noted: read-out: Activity on MDA-MB-231 (IC50); glucose-free Leibovitz's L-15, 10% FBS; day 5; alamarBlue.

As for `COc1cc(CN2CCN(C(=O)c3ccc(Oc4ccc(C5CCC6(CC5)OCCO6)cc4C=O)cc3)CC2)cc(OC)c1`, the IC50 in assay [1] was at most 5 µM; in assay [2] it was at most 5 µM; in assay [3], at most 5 µM; in assay [4], at most 5 µM; in assay [5] it was at most 5 µM; in assay [6], at most 1 µM.

`O=Cc1cc(C2CCC3(CC2)OCCO3)ccc1Oc1ccc(C(=O)N2CCN(c3ccc(O)cc3)CC2)cc1`: the IC50 was at most 5 µM in assay [1]; at most 1 µM in assay [2]; at most 5 µM in assay [3]; at most 5 µM in assay [4]; at most 5 µM in assay [5]; at most 1 µM in assay [6].

Take `O=Cc1cc(C2CCC3(CC2)OCCO3)ccc1Oc1ccc(C(=O)N2CC3CC2CN3Cc2ccccc2)cc1` (stereo not drawn): the IC50 in assay [1], in assay [2], in assay [3], in assay [4], in assay [5] and in assay [6] was at most 5 µM in each case.

Consider `Cc1cc(C(=O)N2CCN(Cc3ccccc3)CC2)ccc1Oc1ccc(C2CCC3(CC2)OCCO3)cc1C=O`, for which the IC50 in assay [1] is at most 20 µM; in assay [2] it was at most 5 µM; in assay [3] it was at most 5 µM; in assay [4] it was at most 5 µM; in assay [5], at most 20 µM; in assay [6], at most 5 µM.

Regarding `O=Cc1cc(C2CCC3(CC2)OCCO3)ccc1Oc1ccc(C(=O)N2CC3(CN(Cc4ccccc4)C3)C2)cc1`, the IC50 in assay [1] is at most 1 µM; in assay [2], at most 5 µM; in assay [3], at most 20 µM; in assay [4], at most 5 µM; in assay [5], at most 1 µM; in assay [6], at most 5 µM.

With `O=Cc1cc(C2CCC3(CC2)OCCO3)ccc1Oc1ccc(C(=O)N2CCN(Cc3cnc4ccccc4c3)CC2)cc1`, the IC50 is at most 5 µM in assay [1]; at most 0.2 µM in assay [2]; at most 5 µM in assay [3]; at most 5 µM in assay [4]; at most 5 µM in assay [5]; at most 0.2 µM in assay [6].

On to `O=Cc1cc(C2CCC3(CCCO3)CC2)ccc1Oc1ccc(C(=O)N2CCN(Cc3ccccc3)CC2)cc1` (stereo not drawn), for which the IC50 in assay [1] is at most 5 µM; in assay [2], at most 0.2 µM; in assay [3], at most 1 µM; in assay [4], at most 5 µM; in assay [5], at most 5 µM; in assay [6] it was at most 0.2 µM.

Turning to `O=Cc1cc(C2CCC3(CC2)OCCO3)ccc1Oc1ccc(C(=O)N2CCN(Cc3nccs3)CC2)cc1`, the IC50 in assay [1] is at most 5 µM; in assay [2], at most 1 µM; in assay [3] it was at most 5 µM; in assay [4] it was at most 5 µM; in assay [5], at most 1 µM; in assay [6], at most 1 µM.

In the case of `O=Cc1cc(C2CCC3(CC2)OCCO3)ccc1Oc1ccc(C(=O)N2CCN(c3ccccc3)CC2)cc1`, the IC50 in assay [1], in assay [2], in assay [3], in assay [4], in assay [5] and in assay [6] was at most 5 µM each time.

Turning to `O=Cc1cc(C2CCC3(CC2)OCCO3)ccc1Oc1ccc(C(=O)N2CCN(Cc3ccsc3)CC2)cc1`, the IC50 was at most 5 µM in assay [1]; at most 0.2 µM in assay [2]; at most 5 µM in assay [3]; at most 5 µM in assay [4]; at most 5 µM in assay [5]; at most 0.2 µM in assay [6].

For `O=Cc1cc(C2CCC3(CC2)OCCO3)ccc1Oc1ccc(C(=O)N2CCN(Cc3ccc(S(F)(F)(F)(F)F)cc3)CC2)cc1`, the half-maximal inhibitory concentration (IC50) in assay [1] is at most 1 µM; in assay [2], at most 0.2 µM; in assay [3], at most 0.2 µM; in assay [4] it was at most 5 µM; in assay [5], at most 1 µM; in assay [6], at most 0.2 µM.

For `O=C(c1ccc(Oc2ccc(C3CCC4(CC3)OCCO4)cc2CO)cc1)N1CCN(Cc2ccc[nH]2)CC1`, the IC50 was at most 5 µM in assay [1]; at most 1 µM in assay [2]; at most 5 µM in assay [3]; at most 5 µM in assay [4]; at most 5 µM in assay [5]; at most 1 µM in assay [6].

In the case of `O=Cc1cc(C2CCC3(CC2)OCCO3)ccc1Oc1ccc(C(=O)N2CCN(Cc3cccs3)CC2)cc1`, the IC50 in assay [1] is at most 5 µM; in assay [2], at most 1 µM; in assay [3], at most 5 µM; in assay [4], at most 5 µM; in assay [5], at most 5 µM; in assay [6] it was at most 0.2 µM.

Turning to `O=Cc1cc(C2CCC3(CC2)OCCO3)ccc1Oc1ccc(C(=O)N2CCN(c3ccc(Cl)cc3)CC2)cc1`, the IC50 in assay [1] was at most 5 µM; in assay [2], at most 5 µM; in assay [3], at most 20 µM; in assay [4], at most 5 µM; in assay [5] it was at most 5 µM; in assay [6] it was at most 5 µM.

Consider `O=Cc1cc(C2CCC3(CC2)OCCO3)ccc1Oc1ccc(C(=O)N2CCN(Cc3ccc([N+](=O)[O-])cc3)CC2)cc1`, for which the IC50 in assay [1] was at most 5 µM; in assay [2], at most 0.2 µM; in assay [3] it was at most 1 µM; in assay [4] it was at most 5 µM; in assay [5] it was at most 5 µM; in assay [6] it was at most 0.2 µM.

As to `Cn1cccc1CN1CCN(C(=O)c2ccc(Oc3ccc(C4CCC5(CC4)OCCO5)cc3C=O)cc2)CC1`, the half-maximal inhibitory concentration (IC50) in assay [1] is at most 5 µM; in assay [2] it was at most 1 µM; in assay [3] it was at most 5 µM; in assay [4] it was at most 5 µM; in assay [5], at most 5 µM; in assay [6] it was at most 1 µM.

For the compound `O=Cc1cc(C2CCC3(CC2)OCCO3)ccc1Oc1ccc(C(=O)N2CCN(Cc3ccc(O)cc3)CC2)cc1`, the IC50 in assay [1] is at most 5 µM; in assay [2], at most 0.2 µM; in assay [3], at most 1 µM; in assay [4], at most 5 µM; in assay [5], at most 1 µM; in assay [6] it was at most 0.2 µM.

`O=Cc1cc(C2CCC3(CC2)OCCO3)ccc1Oc1ccc(C(=O)N2CCN(Cc3ccoc3)CC2)cc1`: the half-maximal inhibitory concentration (IC50) in assay [1] is at most 1 µM; in assay [2], at most 1 µM; in assay [3] it was at most 5 µM; in assay [4] it was at most 5 µM; in assay [5] it was at most 1 µM; in assay [6] it was at most 0.2 µM.

As for `O=Cc1cc(C2CCC3(CC2)OCCO3)ccc1Oc1ccc(C(=O)N2CCN(Cc3ccc4oc(=O)ccc4c3)CC2)cc1`, the IC50 in assay [1] is at most 5 µM; in assay [2], at most 0.2 µM; in assay [3] it was at most 0.2 µM; in assay [4] it was at most 5 µM; in assay [5], at most 5 µM; in assay [6], at most 0.2 µM.

In general, IC50 refers to the midpoint of a concentration-inhibition curve.
